For the test, the target named is Lysosomal acid glucosylceramidase (Homo sapiens) (UniProt P04062). The test can be described thus: Induction of wild type beta glucosidase activity in fibroblasts derived from Gaucher disease patient after 4 days relative to control.

As for `CCCCCCCCN[C@@H]1C=C(CO)[C@@H](O)[C@H](O)[C@H]1O`, the fold change (FC) was found to be 1.5.

(Values after ChEMBL document CHEMBL2331344, “Pharmacological chaperones as therapeutics for lysosomal storage diseases” (J Med Chem, 2013).)
